Here are results for 2 substances from patent publication US8865714B2, “Piperazine compound capable of inhibiting prostaglandin D synthase” (Taiho Pharmaceutical Co., Ltd., priority 2009, dated 2014).

Amino acid sequences for entries named in this document (tags omitted). A change or cut given only in a name is not applied to a line headed by its entry.
UniProt O60760: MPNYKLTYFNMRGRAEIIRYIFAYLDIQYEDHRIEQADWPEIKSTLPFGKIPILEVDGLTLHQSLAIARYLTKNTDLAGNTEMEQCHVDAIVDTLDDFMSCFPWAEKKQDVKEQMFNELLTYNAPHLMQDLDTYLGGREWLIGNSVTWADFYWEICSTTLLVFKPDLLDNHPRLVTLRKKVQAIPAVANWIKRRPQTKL

pIC50: −log10 of the molar value. Bounds are passed on as bounds.

In this assay the target is human H-PGDS (Homo sapiens (Human), UniProt O60760). The experiment in a line: Hematopoietic prostaglandin D synthase (H-PGDS) inhibiting action. In kind it is biochemical. The conditions noted are these: [14C] prostaglandin H2 10 μM; for H-PGDS inhibition rate (%): compound at 0.1 μM, relative to the control group. The method, then: More specifically, the reaction mixture (49 μL) containing 100 mM Tris-HCl (pH 8.0), 1 mM reduced glutathione, 0.1 mg/mL γ-globulin, and human H-PGDS (q.s.), and a compound (final concentration: 0.01-100 μM) was preincubated at 25° C. for 5 minutes. Note that a DMSO solution (final concentration: 1%) was added to the solvent control group. Subsequently, 1 μL of [14C] prostaglandin H2 (final concentration: 10 μM) was added to start the reaction. One minute after the start of the reaction, 250 μL of a reaction stopper solution (diethylether/methanol/1 M citric acid (30/4/1) at a temperature of −20° C. was added to stop the reaction. After the reaction was stopped, 50 μL of the upper layer portion (organic solvent phase) was applied to a TLC plate and developed at −20° C. for 45 minutes (developing solvent: diethylether/methanol/acetic acid (90/2/1)). After drying the TLC plate, the TLC plate was exposed to an imaging plate for 1 to 24 hours, and the radioactivity corresponding to prostaglandin D2 (PGD2) was analyzed using an image analyzer (produced by Fujifilm Corporation).

As for “4-((3,5-dimethylpyrrol-2-yl)-carbonyl)-N-(4-(4-morpholin-1-yl-carbonylpiperidin-1-yl)-phenyl)-1-piperazinecarboxamide [Reference Example 2]”, the pIC50 – broadly, the IC50 on a negative log10 scale, so that one unit is a factor of ten – was under 6.00 and the “H-PGDS inhibition rate (%)” value amounted to 3.9%.
The matching figures for “4-((pyrrol-2-yl)-carbonyl)-N-(4-(4-morpholin-1-yl-carbonylpiperidin-1-yl)-phenyl)-1-piperazinecarboxamide [Reference Example 1]”: under 6.00 and 2.4%.
